# Literature values in patent US7662571B2, “Mitochondrial markers of ischemia” (Nourheart Inc., priority 2005, dated 2010).
# Chains of the proteins cited; added tags and fusions are not shown. Lines headed by an entry give the natural chain unless they say otherwise; changes in a name come on top.
# UniProt P25090: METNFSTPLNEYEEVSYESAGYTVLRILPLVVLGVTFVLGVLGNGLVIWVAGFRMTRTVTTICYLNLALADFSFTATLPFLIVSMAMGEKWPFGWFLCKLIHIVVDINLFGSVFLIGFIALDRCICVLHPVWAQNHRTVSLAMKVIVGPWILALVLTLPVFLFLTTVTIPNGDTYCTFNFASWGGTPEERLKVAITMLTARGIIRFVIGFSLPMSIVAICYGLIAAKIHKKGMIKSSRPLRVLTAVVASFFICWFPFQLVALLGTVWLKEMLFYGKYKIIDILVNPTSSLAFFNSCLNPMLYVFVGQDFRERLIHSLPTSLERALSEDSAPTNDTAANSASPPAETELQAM
# Molecular target: FPR-like 1 (FPRL1) (Homo sapiens, UniProt P25090)
# Details: FPRL1, low-affinity receptor
substance,measurement,value
formyl-Met-Leu-Phe [fMLP],concentration needed for receptor activation,only activated by high (micromolar) concentrations
